Experimental data published in PMC7759869 (Biomedicines, 2020).

Amino acid sequences for entries named in this document (tags omitted).
UniProt P08684, whole entry: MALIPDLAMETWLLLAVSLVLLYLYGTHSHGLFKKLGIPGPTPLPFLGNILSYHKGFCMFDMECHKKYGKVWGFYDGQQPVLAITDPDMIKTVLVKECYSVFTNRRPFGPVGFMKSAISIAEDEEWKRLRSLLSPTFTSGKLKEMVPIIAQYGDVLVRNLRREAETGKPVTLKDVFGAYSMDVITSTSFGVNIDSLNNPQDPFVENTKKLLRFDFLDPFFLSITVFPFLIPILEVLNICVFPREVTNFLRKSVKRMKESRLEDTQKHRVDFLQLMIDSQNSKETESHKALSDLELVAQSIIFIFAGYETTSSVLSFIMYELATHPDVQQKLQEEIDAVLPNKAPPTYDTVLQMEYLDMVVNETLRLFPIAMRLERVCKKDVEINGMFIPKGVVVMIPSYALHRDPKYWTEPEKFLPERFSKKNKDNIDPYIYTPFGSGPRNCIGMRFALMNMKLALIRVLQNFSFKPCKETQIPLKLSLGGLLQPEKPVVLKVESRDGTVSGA

How the values were obtained:
Assay type in all cases: in vitro ADME
human liver microsomes [1] = assay: Correlation of CYP- and FMO-linked catalytic activities with amounts of cabozantinib metabolites formed in microsomes; settings: twelve human microsomal samples
Description: Data are expressed as mean ± SD. Data were analyzed using GraphPad Prism 7 (San Diego, CA, USA) using ANOVA with post-hoc Tukey HSD Test. All p-values are two-tailed and considered significant at the 0.05 level. […] Correlation coefficients (r) were based on a sample size of twelve for human microsomes. All p-values are two-tailed and considered significant at the 0.05 level.
To clarify these correlations, multivariate analysis was used to investigate the dependence of metabolite formation on these CYP activities. Activities of CYP2A6, -2B6 and -2C8 in each microsomal sample were combined in pairs with the activities of CYP3A4 to see if any combination of the activities led to an improvement in the correlation with CYP3A4.

CYPs in human liver = assay: Contributions of CYP enzymes to formation of cabozantinib metabolites in human livers; settings: calculated from velocities with cyt b5 and CYP expression levels in human liver
CYP3A4 + cyt b5 = molecular target: T1, CYP3A4 + cyt b5 (Homo sapiens, UniProt P08684); assay: Cabozantinib oxidation by recombinant CYP3A4 in the presence of cyt b5 (Supersomes); settings: formation of the metabolite from cabozantinib by CYP3A4 + cyt b5
T1 construct: purchased Corning (Corning, NY, USA); host or cells: insect cells (baculovirus)
Excerpt: (§1) Cabozantinib was from MedChemExpress (Monmouth Junction, NJ, USA). Standard of cabozantinib N-oxide was purchased from Toronto Research Chemicals (Toronto, Canada). Ketoconazole, NADPH and other chemicals were all purchased from Merck (Darnstadt, Germany). The purity of all chemicals met the standards of American Chemical Society, unless otherwise noted. Male human hepatic microsomes (pooled sample) (sample LOT: 3043885) were from Gentest Corp. (Woburn, MA, USA). Microsomes from livers of twelve human donors were obtained from Gentest Corp. (Woburn, MA, USA) (Lot. no. HG43-1, HG103, HG74, HG93, HG24, HG27, HG23, HG32, HK31, HK34, HG03 and HG42). Each human microsomal sample was characterized for CYP, FMO, total protein contents and specific CYP activities by Gentest Corp. and reanalyzed by us by assays described in the protocols of Gentest Corp. Our data were similar to those reported by Gentest Corp. (Table 1). Human recombinant enzymes were used in the forms of Supersomes™ and obtained from Corning (Corning, NY, USA). In Supersomes™, microsomal fractions were isolated from insect cells that were transfected with baculovirus constructs containing cDNA of human CYP enzymes (CYP1A1/2, 1B1, 2A6, 2B6, 2C8/9/18/19/, 2D6, 2E1, 3A4). The Supersomes™ also express NADPH:CYP oxidoreductase (POR). […]

CYP3A4 = CYP3A4 (Homo sapiens, UniProt P08684); assay: Kinetics of cabozantinib oxidation by recombinant CYP3A4 (Supersomes); parameters: purchased Corning (Corning, NY, USA); host or cells: insect cells (baculovirus); settings: formation of the metabolite from cabozantinib by CYP3A4 without cyt b5
Excerpt: as §1, with “(POR). However, because they are microsomes (particles of broken endoplasmic reticulum), other enzymes (proteins) of the endoplasmic reticulum membrane (like NADH:cytochrome b5 reductase and cytochrome b5) are also expressed at basal levels in these Supersomes™. We also utilized Supersomes™, which overexpressed cytochrome b5, in a molar ratio of CYP to cytochrome b5 of 1 to 5. In Supersomes™, where cytochrome b5 was not overexpressed (see above), pure cytochrome b5 was added to reach a molar ratio of CYP to cytochrome b5 of 1 to 5. Reconstitution of Supersomes™ with purified cytochrome b5 was performed as described previously. Human recombinant FMOs and AO were also used in the forms of Supersomes™ (Gentest Corp., Woburn, MA, USA).” for “(POR).”

human liver microsomes [2] = assay: Oxidation of cabozantinib by hepatic microsomes of individual human donors (HPLC of metabolites); settings: 50 µM cabozantinib, 20 min
human liver microsomes [3] = assay: as above; settings: 50 µM cabozantinib, 20 min; remark: listed apart in the source
Excerpt: Cabozantinib was from MedChemExpress (Monmouth Junction, NJ, USA). Standard of cabozantinib N-oxide was purchased from Toronto Research Chemicals (Toronto, Canada). Ketoconazole, NADPH and other chemicals were all purchased from Merck (Darnstadt, Germany). The purity of all chemicals met the standards of American Chemical Society, unless otherwise noted. Male human hepatic microsomes (pooled sample) (sample LOT: 3043885) were from Gentest Corp. (Woburn, MA, USA). Microsomes from livers of twelve human donors were obtained from Gentest Corp. (Woburn, MA, USA) (Lot. no. HG43-1, HG103, HG74, HG93, HG24, HG27, HG23, HG32, HK31, HK34, HG03 and HG42). Each human microsomal sample was characterized for CYP, FMO, total protein contents and specific CYP activities by Gentest Corp. and reanalyzed by us by assays described in the protocols of Gentest Corp. Our data were similar to those reported by Gentest Corp. (Table 1). Human recombinant enzymes were used in the forms of Supersomes™ and obtained from Corning (Corning, NY, USA). In Supersomes™, microsomal fractions were isolated from insect cells that were transfected with baculovirus constructs containing cDNA of human CYP enzymes (CYP1A1/2, 1B1, 2A6, 2B6, 2C8/9/18/19/, 2D6, 2E1, 3A4). The Supersomes™ also express NADPH:CYP oxidoreductase (POR). However, because they are microsomes (particles of broken endoplasmic reticulum), other enzymes (proteins) of the endoplasmic reticulum membrane (like NADH:cytochrome b5 reductase and cytochrome b5) are also expressed at basal levels in these Supersomes™. We also utilized Supersomes™, which overexpressed cytochrome b5, in a molar ratio of CYP to cytochrome b5 of 1 to 5. In Supersomes™, where cytochrome b5 was not overexpressed (see above), pure cytochrome b5 was added to reach a molar ratio of CYP to cytochrome b5 of 1 to 5. Reconstitution of Supersomes™ with purified cytochrome b5 was performed as described previously. Human recombinant FMOs and AO were also used in the forms of Supersomes™ (Gentest Corp., Woburn, MA, USA). These microsomal fractions were isolated from insect cells that are transfected with baculovirus constructs containing cDNA of human FMO1, FMO3, FMO5 or AO enzymes.
The reaction was initiated by adding NADPH. In control incubations, either microsomes or CYP (FMO, AO) or NADPH were omitted. […] The reaction was stopped by extraction with ethyl acetate (2 × 1 mL). […] Cabozantinib metabolites separated by HPLC were characterized by mass spectroscopy (see further details below).

In the case of monohydroxy cabozantinib [M1], the “Correlation coefficient (r) with CYP2C19 activity” value (human liver microsomes [1]; (S)-Mephenytoin-4′-hydroxylase) is reported as −0.119, the “Correlation coefficient (r) with CYP2B6 activity” value (human liver microsomes [1]; (S)-Mephenytoin-N-demethylase) is reported as 0.886 *** and the “Correlation coefficient (r) with CYP2D6 activity” value (human liver microsomes [1]; Buferalol-1′-hydroxylase) is reported as 0.028. The “Correlation coefficient (r) with CYP2E1 activity” value (human liver microsomes [1]; Chlorzoxazone-6-hydroxylase) was −0.065, the “Correlation coefficient (r) with CYP2A6 activity” value (human liver microsomes [1]; Coumarine-7-hydroxylase) was 0.607 * and the “Correlation coefficient (r) with CYP2C9 activity” value (human liver microsomes [1]; Diclofenac-4′-hydroxylase) was 0.142. The “Correlation coefficient (r) with CYP4A11 activity” value (human liver microsomes [1]; Lauric acid-12-hydroxylase) was 0.163, the “Correlation coefficient (r) with FMO activity” value (human liver microsomes [1]; Methyl-p-tolyl sulfide oxidase) was 0.137 and the “Correlation coefficient (r) with CYP2C8 activity” value (human liver microsomes [1]; Paclitaxel-6α-hydroxylase) was 0.785 **. The “Correlation coefficient (r) with CYP1A2 activity” value (human liver microsomes [1]; Phenacetin-O-deethylase) was 0.104, the “Correlation coefficient (r) with Total CYPs” value (human liver microsomes [1]; amount of metabolite formed vs total CYP content) was 0.705 * and the “Contribution of CYPs other than CYP3A4 to formation of the metabolite in human liver” value (CYPs in human liver) was “less than 3%”. It also gave a K0.5 (CYP3A4 + cyt b5) of 26.00 ± 2.92 µM, a VMax (CYP3A4 + cyt b5) of 3.60 ± 0.11 peak area/min/nmol CYP and a K0.5 (CYP3A4) of 8.98 ± 1.04 µM. The VMax (CYP3A4) was 1.50 ± 0.05 peak area/min/nmol CYP, the Ki (CYP3A4; substrate inhibition) was 947.87 ± 202.96 µM and the “Amounts of cabozantinib metabolites” value (human liver microsomes [2]; human liver microsomes sample HK23) was 0.094 peak area/incubation time. For the same substance, the “Amounts of cabozantinib metabolites” value (human liver microsomes [2]; human liver microsomes sample HK27) was 0.273 peak area/incubation time, the “Amounts of cabozantinib metabolites” value (human liver microsomes [3]; human liver microsomes sample HG03) was 0.287 peak area/incubation time and the “Amounts of cabozantinib metabolites” value (human liver microsomes [3]; human liver microsomes sample HG24) was 0.132 peak area/incubation time. The “Amounts of cabozantinib metabolites” value (human liver microsomes [3]; human liver microsomes sample HG32) was 0.208 peak area/incubation time, the “Amounts of cabozantinib metabolites” value (human liver microsomes [3]; human liver microsomes sample HG42) was 0.301 peak area/incubation time and the “Amounts of cabozantinib metabolites” value (human liver microsomes [3]; human liver microsomes sample HG43) was 0.755 peak area/incubation time. The “Amounts of cabozantinib metabolites” value (human liver microsomes [3]; human liver microsomes sample HG74) was 0.148 peak area/incubation time, the “Amounts of cabozantinib metabolites” value (human liver microsomes [3]; human liver microsomes sample HG93) was 0.292 peak area/incubation time and the “Amounts of cabozantinib metabolites” value (human liver microsomes [3]; human liver microsomes sample HG103) was 0.109 peak area/incubation time. The “Amounts of cabozantinib metabolites” value (human liver microsomes [3]; human liver microsomes sample HK31) was 0.218 peak area/incubation time and the “Amounts of cabozantinib metabolites” value (human liver microsomes [3]; human liver microsomes sample HK34) was 0.209 peak area/incubation time.

Marks after values point to notes of the source that are not given here.
